Reference: patent US20070014736A1 (published 2007)

Target: T1, thyroid-stimulating hormone receptor (TSHR) expressed on BHK cells (BHK-TSHR cells) (UniProt P16473 21-764, limits assumed)
T1 construct: whole, on cells; also called TSH receptor
Assay: radioligand saturation binding to BHK-TSHR cells, single-site non-linear regression
Method: Specific binding was determined in the presence (nonspecific binding) and absence (total binding) of unlabeled rhCGH (25.0 μg/ml) or TSH (10 μg/ml). Binding reactions were terminated by removing the binding medium and the cell monolayers were washed three times with 1.0-2.0 ml of ice-cold PBS containing 1.0 mg/ml BSA and twice with 1.0-2.0 ml of ice cold albumin-free PBS. Cells were solubilized in 1.0 ml of 1.0N NaOH for 10 min at room temperature and cell-associated radioactivity was determined in a gamma counter. The measured radioactivity was normalized to cell number that was determined on plates of cells cultured in parallel. Binding data were analyzed by non-linear regression using Prizm 3.0 (GraphPad Software, San Diego, Calif.).
Both ¹²⁵I-CGH and ¹²⁵I-TSH bound to BHK-TSHR cells in a time-dependent manner and reached an apparent steady state within 2 h at 4° C. Binding of both radiolabeled ligands was saturable, specific, and of high affinity (FIG. 1A-B). […] The ¹²⁵I-CGH specific-binding data were directly fitted to a two-site model by non-linear regression to yield the equilibrium dissociation constant (Kd) and the maximum amount bound (Bmax) to each of the sites at steady state. […] Little or no binding of ¹²⁵I-TSH or ¹²⁵I-CGH was observed, in contrast, to parental BHK cells lacking the TSHR (data not shown). […]

- Kd: 41 nM
B1: human pituitary-derived TSH (BiosPacific) (ligand)
chain 1: not shown
chain 2: FCIPTEYTMHIERRECAYCLTINTTICAGYCMTRDINGKLFLPKYALSQDVCTYRDFIYRTVEIPGCPLHVAPYFSYPVALSCKCGKCNTDYSDCIHEAIKTNYCTKPQKSY
notes: Bought, pituitary-derived; also called human TSH
